For one molecule, activation results are on record in PubChem BioAssay AID930 (National Center for Advancing Translational Sciences (NCATS), 2007).

The entries are a selection whose mix differs from that of the whole data set. Calls of active or inactive are those of the source. The call rests on the fitted dose curve; in most records, active means well fitted activation curve with a large enough effect; inconclusive means small, poorly fitted or top-dose-only effect; inactive means flat fitted curve, though single readings scatter.

A short description of this assay: Confirmation and Secondary Assay for Modulators of Hemoglobin Beta Chain Splicing at IVS2 705 locus. Further: % of control where 0% means no effect. The following applies: HeLa EGFP-705 splicing reporter, GFP fluorescence, 48 h; at 46.1 µM (top of the series). The source says: NIH Chemical Genomics Center [NCGC] NIH Molecular Libraries Screening Centers Network [MLSCN] MLSCN Grant: 1 X01 MH080684-01 PI Name: Dr. Ryszard Kole NCGC Assay Overview: Modulation of Alternative Splicing as Therapy Abnormal splicing is associated with a number of diseases, including cancer and genetic diseases such as cystic fibrosis, muscular dystrophy and beta-thalassemia. Alteration of disease associated splicing patterns provides a promising target for treatment. […] Mutations in the second intron of the b-globin gene at positions 654 or 705 are clinically relevant and cause mis-splicing which results in an out of frame gene product. […] EGFP-705 HeLa Cells as screen system. HeLa cell lines were stably transfected with a construct in which the EGFP (enhanced green fluorescent protein) cDNA was interrupted by the second intron of the beta-globin gene (IVS2-705). The ISV2 intron contains mutations which cause mis-splicing of EGFP and premature termination of EGFP which results in a nonfluorescent protein product. […]
NCGC Assay Protocol Summary: Confirmatory Screening. […] Plates were read in the Acumen Explorer (TTP Labtech) using 488 nm laser excitation and 500-520 nm emission PMT filter in a 1 x 8 uM capture mode. Fluorescnet objects ranging in size from 5 to 250 uM were measured and the total peak GFP intensity for each well was used for data analysis. […]
With `CN(CCCl)CCCl`, the activation was inactive: 1.52%.
